Experimental data as given in patent US20230374068A1 (RAMOT AT TEL AVIV UNIVERSITY, published 2023).

Biological target: T1, endogenous Rab12 of RBL cells (rat, UniProt P35284 49-291, limits assumed)
T1 construct: Total Rab12 pulled down from cell lysates (blot reprobed with anti-Rab12)
T1 sequence (looked up): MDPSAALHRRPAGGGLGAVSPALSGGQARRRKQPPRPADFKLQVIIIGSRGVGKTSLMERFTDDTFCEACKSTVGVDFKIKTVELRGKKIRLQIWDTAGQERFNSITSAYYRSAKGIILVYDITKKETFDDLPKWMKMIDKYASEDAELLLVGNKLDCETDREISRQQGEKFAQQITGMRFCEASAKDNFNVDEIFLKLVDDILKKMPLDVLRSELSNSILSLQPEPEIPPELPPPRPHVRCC
Test: GST pulldown from resting RBL cell lysates, anti-Rab12 immunoblot
Procedure: Cells were then lysed and 500 μg of cell lysate were incubated overnight at 4° C. with either GST, GST-RILP, GST-RILP-L1 or GST-RILP-L2, immobilized on glutathione agarose beads, as indicated. At the end of the incubation period, beads were sedimented by centrifugation at 5000×g for 5 minutes at 4° C., washed four times with buffer containing 50 mM Hepes pH 7.4, 150 mM NaCl, 1 mM MgCl₂, 0.2% Triton X-100, protease inhibitor mixture, 1 mM PMSF, 2 mM Na₃VO₄, 10 mM NaPPi and 80 mM β-glycerophosphate and suspended in 1× sample buffer and boiled for 7 minutes. Proteins were resolved by SDS-PAGE and analyzed by immunoblotting with the anti-phosphoRab12 antibodies, followed by reprobing with anti Rab12 antibodies, as indicated. Representative blots are shown. Similar results were obtained in two separate experiments.
Next, it was assessed whether […] any impact on Rab12 interactions with its RILP family effectors. To this end, lysates derived from resting RBL cells or RBL cells that were triggered with either IgE/Ag or Ion/TPA, were subjected to pulldown assays by chimeric proteins consisting of GST-fused to either RILP, RILP-L1, or RILP-L2, or control GST. […] Therefore, under these conditions, the efficacy of Rab12-effector interactions was RILP-L1>RILP>>>RILP-L2.

binding result: no binding
B1: GST (control) (other, UniProt P08515 1-218, looked up)
chain: MSPILGYWKIKGLVQPTRLLLEYLEEKYEEHLYERDEGDKWRNKKFELGLEFPNLPYYIDGDVKLTQSMAIIRYIADKHNMLGGCPKERAEISMLEGAVLDIRYGVSRIAYSKDFETLKVDFLSKLPEMLKMFEDRLCHKTYLNGDHVTHPDFMLYDALDVVLYMDPMCLDAFPKLVCFKKRIEAIPQIDKYLKSSKYIAWPLQGWQATFGGGDHPPK
notes: Negative control of the pulldown assays; also called control GST
